Target: T1, purified recombinant HIV RT (Human immunodeficiency virus type 1 group M subtype B, UniProt P04585)
T1 construct: purified recombinant HIV RT; purchased Amersham, Arlington Heights, Ill; (Quan-T-RT system)
Assay: Purified RT assay, cell-free Quan-T-RT system (scintillation proximity)
Format: biochemical
Conditions: IC50 rRT, Table 1 and text
Protocol: The synthesized compounds were tested for RT inhibitory activity (IC50 [rRT]) against purified recombinant HIV RT using the cell-free Quan-T-RT system (Amersham, Arlington Heights, Ill.), which utilizes the scintillation proximity assay principle as decribed in Bosworth, et al., 1989, Nature 341:167-168. In the assay, a DNA/RNA template is bound to SPA beads via a biotin/strepavidin linkage. The primer DNA is a 16-mer oligo(T) which has been annealed to a poly(A) template. The primer/template is bound to a strepavidin-coated SPA bead.
^3 H-TTP is incorporated into the primer by reverse transcription. In brief, ^3 H-TTP, at a final concentration of 0.5 μCi/sample, was diluted in RT assay buffer (49.5 mM Tris-Cl, pH 8.0, 80 mM KCl, 10 Mm MgCl2, 10 mM DTT, 2.5 mM EGTA, 0.05% Nonidet-P-40), and added to annealed DNA/RNA bound to SPA beads. The compound being tested was added to the reaction mixture at 0.001 μM-100 μM concentrations. […] The reaction was stopped by addition of 0.2 ml of 120 mM EDTA. The samples were counted in an open window using a Beckman LS 7600 instrument and IC50 values were calculated by comparing the measurements to untreated samples.

## S=C(NCCc1ccccn1)Nc1ccc(Br)cn1 [Trovirdine, reference compound]
  IC50: 600 nM
